Experiments:
human ORL1 receptor = human ORL1 receptor (Homo sapiens, UniProt P41146); assay: Affinity for human ORL1 receptors, [3H]-nociceptin receptor binding assay on CHO cell membranes; details: human ORL1 receptor in CHO membranes
human μ-opiate receptor = human μ-opiate receptor (Homo sapiens, UniProt P35372); assay: Affinity for μ-opiate receptors, [3H]-DAMGO receptor binding assay on CHO cell membranes; details: human μ-opiate receptor in CHO membranes

Compound | affinity ORL1 pKi (human ORL1 receptor) | affinity μ-opiate pKi (human μ-opiate receptor)
CN(CCN1CN(c2ccccc2)C2(CCN(CCC3CCC4CC3C4(C)C)CC2)C1=O)C(=O)Nc1cc(C(F)(F)F)cc(C(F)(F)F)c1 (stereo not drawn) | 7.8 | 6.9
CN(CCN1CN(c2ccccc2)C2(CCN(CCC3CCC4CC3C4(C)C)CC2)C1=O)Cc1ccc2ccccc2c1 (stereo not drawn) | 8.2 | 6.7
CN(CCN1CN(c2ccccc2)C2(CCN(CCC3CCC4CC3C4(C)C)CC2)C1=O)Cc1ccccc1 (stereo not drawn) | 8.6 | 7.0
CN(CCN1CN(c2ccccc2)C2(CCN(CCC3CCC4CC3C4(C)C)CC2)C1=O)C(=O)Nc1ccccc1Br (stereo not drawn) | 7.9 | 7.1
CN(CCN1CN(c2ccccc2)C2(CCN(CCC3CCC4CC3C4(C)C)CC2)C1=O)C(c1cccs1)C(O)C(O)C(O)CO (stereo not drawn) | 8.1 | 7.4
CN(CCCCCN1CN(c2ccccc2)C2(CCN(CCC3CCC4CC3C4(C)C)CC2)C1=O)CC1(O)CCNCC1 (stereo not drawn) | 9.4 | 7.2
CN(CCN1CN(c2ccccc2)C2(CCN(CCC3CCC4CC3C4(C)C)CC2)C1=O)C(=O)Nc1ccc(-c2ccccc2)cc1 (stereo not drawn) | 7.7 | 6.8
CN(CCOc1ccccc1)CCN1CN(c2ccccc2)C2(CCN(CCC3CCC4CC3C4(C)C)CC2)C1=O (stereo not drawn) | 7.6 | 6.8
COc1ccc(NC(=O)N(C)CCN2CN(c3ccccc3)C3(CCN(CCC4CCC5CC4C5(C)C)CC3)C2=O)c(OC)c1 (stereo not drawn) | 8.1 | 7.1
CNCCCCCCN1CN(c2ccccc2)C2(CCN(CCC3CCC4CC3C4(C)C)CC2)C1=O (stereo not drawn) | 9.1 | 7.4
CNCCCCN1CN(c2ccccc2)C2(CCN(CCC3CCC4CC3C4(C)C)CC2)C1=O (stereo not drawn) [Example 14] | 9.2 | 7.2
CN(CCCN1CN(c2ccccc2)C2(CCN(CCC3CCC4CC3C4(C)C)CC2)C1=O)C(c1cccs1)C(O)C(O)C(O)CO (stereo not drawn) | 8.1 | 7.4
CN(CCCN1CN(c2ccccc2)C2(CCN(CCC3CCC4CC3C4(C)C)CC2)C1=O)CC(O)C(O)C(O)C(O)CO (stereo not drawn) | 8.1 | 7.4
CC1(C)C2CCC(CCN3CCC4(CC3)C(=O)N(CCN3CCC(O)(c5ccc(Cl)c(C(F)(F)F)c5)CC3)CN4c3ccccc3)C1C2 (stereo not drawn) | 9.2 | 7.7
CN(CCN1CN(c2ccccc2)C2(CCN(CCC3CCC4CC3C4(C)C)CC2)C1=O)C1CCCC1O (stereo not drawn) | 8.0 | 7.3
CN(CCCN1CN(c2ccccc2)C2(CCN(CCC3CCC4CC3C4(C)C)CC2)C1=O)C1CCCCC1O (stereo not drawn) | 8.2 | 7.4
CCCCOC(=O)c1ccc(NC(=O)N(C)CCN2CN(c3ccccc3)C3(CCN(CCC4CCC5CC4C5(C)C)CC3)C2=O)cc1 (stereo not drawn) | 8.0 | 6.8

Compound | affinity ORL1 pKi (human ORL1 receptor) | affinity μ-opiate pKi (human μ-opiate receptor)
CN(CCCN1CN(c2ccccc2)C2(CCN(CCC3CCC4CC3C4(C)C)CC2)C1=O)c1ccccn1 (stereo not drawn) | 8.6 | 7.8
CN(CCN1CN(c2ccccc2)C2(CCN(CCC3CCC4CC3C4(C)C)CC2)C1=O)C(=O)Nc1ccc(Oc2ccccc2)cc1 (stereo not drawn) | 8.1 | 7.0
CN(CCCN1CN(c2ccccc2)C2(CCN(CCC3CCC4CC3C4(C)C)CC2)C1=O)CC1(O)CCNCC1 (stereo not drawn) [Example 37, 8-[2-(6,6-Dimethyl-bicyclo[3.1.1]hept-2-yl)-ethyl]-3-{3-[(4-hydroxy-piperidin-4-ylmethyl)-methyl-amino]-propyl}-1-phenyl-1,3,8-triaza-spiro[4.5]decan-4-one] | 8.8 | 7.7
CN(CCCCCCN1CN(c2ccccc2)C2(CCN(CCC3CCC4CC3C4(C)C)CC2)C1=O)C1CCCCC1O (stereo not drawn) | 8.3 | 7.6
CN(CCN1CN(c2ccccc2)C2(CCN(CCC3CCC4CC3C4(C)C)CC2)C1=O)C(c1ccco1)C(O)CO (stereo not drawn) [Example 51] | 9.1 | 7.9
COc1cccc(CN2CCC(O)(CN(C)CCCN3CN(c4ccccc4)C4(CCN(CCC5CCC6CC5C6(C)C)CC4)C3=O)CC2)c1 (stereo not drawn) | 8.2 | 7.4
CNCCCCCN1CN(c2ccccc2)C2(CCN(CCC3CCC4CC3C4(C)C)CC2)C1=O (stereo not drawn) | 8.5 | 7.5
COC1(CN(C)CCCN2CN(c3ccccc3)C3(CCN(CCC4CCC5CC4C5(C)C)CC3)C2=O)CCNCC1 (stereo not drawn) | 8.5 | 8.1
CN(CCC(=O)c1ccccc1)CCN1CN(c2ccccc2)C2(CCN(CCC3CCC4CC3C4(C)C)CC2)C1=O (stereo not drawn) | 8.0 | 7.0
CCOC(=O)C(C)NC(=O)N(C)CCN1CN(c2ccccc2)C2(CCN(CCC3CCC4CC3C4(C)C)CC2)C1=O (stereo not drawn) | 8.0 | 6.9
CN(CCN1CN(c2ccccc2)C2(CCN(CCC3CCC4CC3C4(C)C)CC2)C1=O)C(=O)Nc1ccc(Cl)cc1 (stereo not drawn) | 7.9 | 7.0
CN(CCN1CN(c2ccccc2)C2(CCN(CCC3CCC4CC3C4(C)C)CC2)C1=O)C(=O)Nc1ccccc1F (stereo not drawn) | 7.9 | 7.1
CN(CCN1CN(c2ccccc2)C2(CCN(CCC3CCC4CC3C4(C)C)CC2)C1=O)C(=O)Nc1cccc(Cl)c1 (stereo not drawn) | 8.2 | 7.1
CN(CCN1CN(c2ccccc2)C2(CCN(CCC3CCC4CC3C4(C)C)CC2)C1=O)Cc1ccncc1 (stereo not drawn) | 8.1 | 7.4
CN(CCN1CN(c2ccccc2)C2(CCN(CCC3CCC4CC3C4(C)C)CC2)C1=O)CCn1c(=O)[nH]c2ccccc2c1=O (stereo not drawn) | 7.9 | 7.0
CNCCCN1CN(c2ccccc2)C2(CCN(CCC3CCC4CC3C4(C)C)CC2)C1=O (stereo not drawn) [Example 13, 8-[2-(6,6-Dimethyl-bicyclo[3.1.1]hept-2-yl)-ethyl]-3-(3-methylamino-propyl)-1-phenyl-1,3,8-triaza-spiro[4.5]decan-4-one] | 8.9 | 7.4
